1 molecule from ChEMBL document CHEMBL1125897 can be followed below.

Structures are written as SMILES. Only a part of the results on these compounds is given; other tests are left out.

The species named for this data set is Homo sapiens. In words: Plasma half-life of drug (human metabolism). The settings on record: in vivo.

As to `CCC(=O)N(c1ccccc1)C1(C(=O)OC)CCN(CCC(=O)OC)CC1`, the T1/2 came out at 37 min.
